Measurements: ChEMBL document CHEMBL5365479, “Development of Potent and Selective Coactivator-Associated Arginine Methyltransferase 1 (CARM1) Degraders” (J Med Chem, 2023)
Blank lines part the entries; values can stand above or below the compound they belong to. Active and inactive are the calls of the source. The calls are words filed in the database; no cut-off is given here.

By UniProt entry, the sequences of proteins in these tests, tags left out. Where a name states a change or a piece, a line headed by the entry shows the natural chain unless it says otherwise.
UniProt Q86X55: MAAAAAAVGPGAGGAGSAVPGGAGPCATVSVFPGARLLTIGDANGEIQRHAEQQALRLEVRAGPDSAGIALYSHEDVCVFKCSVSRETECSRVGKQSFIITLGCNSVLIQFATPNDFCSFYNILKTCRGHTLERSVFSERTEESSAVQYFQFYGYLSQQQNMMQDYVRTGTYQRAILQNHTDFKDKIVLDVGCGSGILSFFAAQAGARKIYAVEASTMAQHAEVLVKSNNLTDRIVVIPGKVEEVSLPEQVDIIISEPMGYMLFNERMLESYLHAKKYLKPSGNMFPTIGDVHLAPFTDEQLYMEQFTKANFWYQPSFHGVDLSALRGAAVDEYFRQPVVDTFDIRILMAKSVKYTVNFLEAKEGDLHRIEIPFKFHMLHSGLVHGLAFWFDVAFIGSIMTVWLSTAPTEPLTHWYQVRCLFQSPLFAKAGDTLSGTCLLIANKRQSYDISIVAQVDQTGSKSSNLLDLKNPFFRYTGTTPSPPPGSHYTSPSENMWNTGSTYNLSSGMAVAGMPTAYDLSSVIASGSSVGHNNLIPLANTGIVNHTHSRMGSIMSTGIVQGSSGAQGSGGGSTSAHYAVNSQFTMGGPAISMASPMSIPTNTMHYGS
UniProt P40337, whole entry, looked up: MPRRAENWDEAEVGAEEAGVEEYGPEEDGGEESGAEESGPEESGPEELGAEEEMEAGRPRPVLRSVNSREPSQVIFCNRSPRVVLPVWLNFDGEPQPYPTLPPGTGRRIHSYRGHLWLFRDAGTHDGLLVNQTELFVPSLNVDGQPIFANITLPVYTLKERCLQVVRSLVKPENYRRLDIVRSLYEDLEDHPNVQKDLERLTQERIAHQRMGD
UniProt Q99873, whole entry, looked up: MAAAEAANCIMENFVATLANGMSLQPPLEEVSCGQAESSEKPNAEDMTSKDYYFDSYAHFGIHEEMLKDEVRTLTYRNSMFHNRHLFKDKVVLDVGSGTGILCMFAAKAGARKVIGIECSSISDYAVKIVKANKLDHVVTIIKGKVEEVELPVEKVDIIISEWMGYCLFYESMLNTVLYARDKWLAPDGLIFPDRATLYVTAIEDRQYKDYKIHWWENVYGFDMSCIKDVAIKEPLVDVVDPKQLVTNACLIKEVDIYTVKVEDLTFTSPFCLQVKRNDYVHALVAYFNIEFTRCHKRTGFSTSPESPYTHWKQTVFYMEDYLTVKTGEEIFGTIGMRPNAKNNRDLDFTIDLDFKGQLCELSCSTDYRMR
UniProt Q96LA8, whole entry, looked up: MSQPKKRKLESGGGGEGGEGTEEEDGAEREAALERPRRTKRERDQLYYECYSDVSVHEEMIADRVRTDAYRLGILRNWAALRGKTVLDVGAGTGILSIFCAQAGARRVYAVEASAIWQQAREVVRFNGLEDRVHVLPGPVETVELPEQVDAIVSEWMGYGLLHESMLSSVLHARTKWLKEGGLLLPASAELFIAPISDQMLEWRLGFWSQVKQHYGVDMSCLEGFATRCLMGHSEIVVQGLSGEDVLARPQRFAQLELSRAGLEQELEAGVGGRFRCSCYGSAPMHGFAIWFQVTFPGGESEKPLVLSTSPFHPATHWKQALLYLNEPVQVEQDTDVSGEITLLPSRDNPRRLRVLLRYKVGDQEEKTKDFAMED
UniProt O14744, whole entry: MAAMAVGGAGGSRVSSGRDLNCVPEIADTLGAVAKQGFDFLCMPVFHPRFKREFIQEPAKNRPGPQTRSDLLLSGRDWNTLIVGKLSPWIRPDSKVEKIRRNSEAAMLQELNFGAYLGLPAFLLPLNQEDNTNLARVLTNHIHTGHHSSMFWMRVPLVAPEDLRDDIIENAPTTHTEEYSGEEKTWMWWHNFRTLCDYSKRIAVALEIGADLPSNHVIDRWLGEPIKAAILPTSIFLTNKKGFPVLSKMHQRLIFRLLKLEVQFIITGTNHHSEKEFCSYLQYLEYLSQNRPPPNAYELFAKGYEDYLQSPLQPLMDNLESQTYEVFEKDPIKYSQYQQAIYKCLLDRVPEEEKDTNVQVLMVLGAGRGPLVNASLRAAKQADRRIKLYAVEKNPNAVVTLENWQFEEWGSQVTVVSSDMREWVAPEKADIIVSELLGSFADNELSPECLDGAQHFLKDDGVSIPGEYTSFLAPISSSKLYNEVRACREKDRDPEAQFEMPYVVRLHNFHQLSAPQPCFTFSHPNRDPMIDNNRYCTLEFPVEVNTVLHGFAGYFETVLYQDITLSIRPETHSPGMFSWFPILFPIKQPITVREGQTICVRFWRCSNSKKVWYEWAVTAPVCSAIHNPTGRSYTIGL

Assays:
[1] = target: T1, von Hippel-Lindau disease tumor suppressor/Histone-arginine methyltransferase CARM1 (Homo sapiens) (UniProt Q86X55+P40337); assay: PROTAC activity at VHL/CARM1 in human MCF7 cells assessed as induction of CARM1 degradation at 0.5 to 1.0 uM incubated for 24 hrs by Western blot analysis; format: cell-based; details: dose 0.5-1 µM
[2] = target: T1, von Hippel-Lindau disease tumor suppressor/Histone-arginine methyltransferase CARM1 (Homo sapiens); assay: PROTAC activity at VHL/CARM1 in human MCF7 cells assessed as induction of CARM1 degradation by Western blot analysis; format: cell-based
[3] = system: MCF7; assay: Downregulation of CARM1 protein expression in human MCF7 cells at 25 nM incubated for 4 hrs by LC-MS/MS analysis; format: functional, cell-based
[4] = target: T1, von Hippel-Lindau disease tumor suppressor/Histone-arginine methyltransferase CARM1 (Homo sapiens); assay: PROTAC activity at VHL/CARM1 in human MCF7 cells assessed as induction of CARM1 degradation at 0.01 to 10 uM incubated for 24 hrs by Western blot analysis; format: cell-based; details: dose 0.01-10 µM
[5] = target: T1, von Hippel-Lindau disease tumor suppressor/Histone-arginine methyltransferase CARM1 (Homo sapiens); assay: PROTAC activity at VHL/CARM1 in human MCF7 cells assessed as induction of CARM1 degradation at 0.5 uM incubated for 2 to 48 hrs by Western blot analysis; format: cell-based; details: time 2-48 hrs
[6] = target: T1, von Hippel-Lindau disease tumor suppressor/Histone-arginine methyltransferase CARM1 (Homo sapiens); assay: PROTAC activity at VHL/CARM1 in human MCF-10A cells assessed as induction of CARM1 degradation at 6.25 to 500 nM by Western blot analysis; format: cell-based; details: dose 6.25-500 nM
[7] = target: T1, von Hippel-Lindau disease tumor suppressor/Histone-arginine methyltransferase CARM1 (Homo sapiens); assay: PROTAC activity at VHL/CARM1 in human MCF7 cells assessed as induction of CARM1 degradation at 0.5 uM incubated for 24 hrs in the presence of TP-064 by Western blot analysis; format: cell-based
[8] = target: T1, von Hippel-Lindau disease tumor suppressor/Histone-arginine methyltransferase CARM1 (Homo sapiens); assay: PROTAC activity at VHL/CARM1 in human MCF7 cells assessed as induction of CARM1 degradation at 0.5 uM incubated for 24 hrs in the presence of VH-032 by Western blot analysis; format: cell-based
[9] = target: T1, von Hippel-Lindau disease tumor suppressor/Histone-arginine methyltransferase CARM1 (Homo sapiens); assay: PROTAC activity at VHL/CARM1 in human MCF7 cells assessed as induction of CARM1 degradation at 0.5 uM incubated for 24 hrs in the presence of MG132 by Western blot analysis; format: cell-based
[10] = target: T1, von Hippel-Lindau disease tumor suppressor/Histone-arginine methyltransferase CARM1 (Homo sapiens); assay: PROTAC activity at VHL/CARM1 in human MCF7 cells assessed as induction of CARM1 degradation at 0.5 uM incubated for 24 hrs in the presence of MLN4924 by Western blot analysis; format: cell-based
[11] = target: Protein arginine N-methyltransferase 1 (Homo sapiens) (UniProt Q99873); assay: Induction of PRMT1 degradation in human MCF7 cells at 0.01 to 10 uM incubated for 24 hrs by Western blot analysis; format: cell-based; details: dose 0.01-10 µM
[12] = target: Protein arginine N-methyltransferase 6 (Homo sapiens) (UniProt Q96LA8); assay: Induction of PRMT6 degradation in human MCF7 cells at 0.01 to 10 uM incubated for 24 hrs by Western blot analysis; format: cell-based; details: dose 0.01-10 µM
[13] = target: Protein arginine N-methyltransferase 5 (Homo sapiens) (UniProt O14744); assay: Induction of PRMT5 degradation in human MCF7 cells at 0.01 to 10 uM incubated for 24 hrs by Western blot analysis; format: cell-based; details: dose 0.01-10 µM
[14] = system: MCF7; assay: Effect on PRMT1 protein expression in human MCF7 cells at 25 nM incubated for 4 hrs by LC-MS/MS analysis; format: functional, cell-based
[15] = system: MCF7; assay: Effect on PRMT5 protein expression in human MCF7 cells at 25 nM incubated for 4 hrs by LC-MS/MS analysis; format: functional, cell-based
[16] = system: MCF7; assay: Downregulation of FAM129B protein expression in human MCF7 cells at 25 nM incubated for 4 hrs by LC-MS/MS analysis; format: functional, cell-based
[17] = target: T1, von Hippel-Lindau disease tumor suppressor/Histone-arginine methyltransferase CARM1 (Homo sapiens); assay: PROTAC activity at VHL/CARM1 in ER and HER2 positive human BT-474 cells assessed as induction of CARM1 degradation at 0.5 uM incubated for 24 to 48 hrs by Western blot analysis; format: cell-based; details: time 24-48 hrs
[18] = target: T1, von Hippel-Lindau disease tumor suppressor/Histone-arginine methyltransferase CARM1 (Homo sapiens); assay: PROTAC activity at VHL/CARM1 in triple negative human MDA-MB-231 cells assessed as induction of CARM1 degradation at 0.5 uM incubated for 24 to 48 hrs by Western blot analysis; format: cell-based; details: time 24-48 hrs
[19] = system: MCF7; assay: Antiproliferative activity against human MCF7 cells assessed as reduction in cell viability at 0.5 uM incubated for 7 days by high contrast bright field microscopic analysis; format: functional, cell-based; details: time 7.0 day
[20] = system: MDA-MB-231; assay: Antiproliferative activity against human MDA-MB-231 cells assessed as reduction in cell viability at 0.5 uM incubated for 7 days by high contrast bright field microscopic analysis; format: functional, cell-based; details: time 7.0 day
[21] = system: MDA-MB-231; assay: Inhibition of cell migration in human MDA-MB-231 cells at 0.5 uM incubated for 20 hrs by crystal violet staining based transwell migration assay; format: functional
[22] = target: T1, von Hippel-Lindau disease tumor suppressor/Histone-arginine methyltransferase CARM1 (Homo sapiens); assay: PROTAC activity at VHL/CARM1 in human MCF7 cells assessed as induction of CARM1 degradation at 0.5 uM incubated for 24 hrs by Western blot analysis; format: cell-based
[23] = system: MDA-MB-231; assay: Inhibition of cell migration in human MDA-MB-231 cells at 10 uM incubated for 20 hrs by crystal violet staining based transwell migration assay; format: functional

Activity [2]: inactive
SMILES: COCCN1CCC(c2cc(CN(C)C(=O)c3cccc(Oc4ccc(OCC(=O)N5CCC(CN6CCC(CN7CCN(CC(=O)N[C@H](C(=O)N8C[C@H](O)C[C@H]8C(=O)N[C@@H](C)c8ccc(-c9scnc9C)cc8)C(C)(C)C)CC7)CC6)CC5)cc4)c3)ccn2)CC1
Activity [3]: inactive

Activity [4]: Active | Activity [5]: Active | Activity [6]: Active | Activity [7]: inactive | Activity [8]: inactive | Activity [9]: inactive | Activity [10]: inactive | Activity [11]: inactive | Activity [12]: inactive | Activity [13]: inactive | Activity [17]: Active | Activity [18]: Active
SMILES: CNCCN1CCC(c2cc(CN(C)C(=O)c3cccc(Oc4ccc(OCC(=O)N5CCC(CN6CCC(CN7CCN(CC(=O)N[C@H](C(=O)N8C[C@H](O)C[C@H]8C(=O)N[C@@H](C)c8ccc(-c9scnc9C)cc8)C(C)(C)C)CC7)CC6)CC5)cc4)c3)ccn2)CC1
Activity [3]: Active | Activity [14]: inactive | Activity [15]: inactive | Activity [16]: Active | Activity [19]: inactive | Activity [20]: inactive | inhibition [21]: Active

Activity [22]: Active
SMILES: CNCCN1CCC(c2cc(CN(C)C(=O)c3cccc(Oc4ccc(CCC(=O)N5CCC(CN6CCC(CN7CCN(CC(=O)N[C@H](C(=O)N8C[C@H](O)C[C@H]8C(=O)N[C@@H](C)c8ccc(-c9scnc9C)cc8)C(C)(C)C)CC7)CC6)CC5)cc4)c3)ccn2)CC1

Activity [22]: inactive
SMILES: CNCCN1CCC(c2cc(CN(C)C(=O)c3cccc(Oc4ccc(CC(=O)N5CCC(CN6CCC(CN7CCN(CC(=O)N[C@H](C(=O)N8C[C@H](O)C[C@H]8C(=O)N[C@@H](C)c8ccc(-c9scnc9C)cc8)C(C)(C)C)CC7)CC6)CC5)cc4)c3)ccn2)CC1

The next lines start with the compound.

SMILES: CNCCN1CCC(c2cc(CN(C)C(=O)c3cccc(Oc4ccc(OCC(=O)NCCc5ccc(OCCCCCC(=O)N[C@H](C(=O)N6C[C@H](O)C[C@H]6C(=O)N[C@@H](C)c6ccc(-c7scnc7C)cc6)C(C)(C)C)cc5)cc4)c3)ccn2)CC1
Activity [1]: Active

SMILES: CNCCN1CCC(c2cc(CN(C)C(=O)c3cccc(Oc4ccc(OCC(=O)NCCc5ccc(OCCCCCCC(=O)N[C@H](C(=O)N6C[C@H](O)C[C@H]6C(=O)N[C@@H](C)c6ccc(-c7scnc7C)cc6)C(C)(C)C)cc5)cc4)c3)ccn2)CC1
Activity [1]: Active

SMILES: CNCCN1CCC(c2cc(CN(C)C(=O)c3cccc(Oc4ccc(OC(=O)N5CCC(CN6CCC(CN7CCN(CC(=O)N[C@H](C(=O)N8C[C@H](O)C[C@H]8C(=O)N[C@@H](C)c8ccc(-c9scnc9C)cc8)C(C)(C)C)CC7)CC6)CC5)cc4)c3)ccn2)CC1
Activity [22]: inactive

SMILES: CNCCN1CCC(c2cc(CN(C)C(=O)c3cccc(Oc4ccccc4)c3)ccn2)CC1
inhibition [23]: Active
